## Binding of CDR-mutated scFvs to a peptide of the spike HR2 region

From the AlphaSeq antibody data of Engelhart et al. 2022 (doi:10.1038/s41597-022-01779-4), copy in the FLAb collection.

Antigen: PDVDLGDISGINAS, a 14-residue peptide of the SARS-CoV-2 spike HR2 region.

Parent scFv Ab-14: VH joined to VL by a 15-residue (Gly4Ser)3 linker. Changes lie in the heavy chain CDRs alone.
VH: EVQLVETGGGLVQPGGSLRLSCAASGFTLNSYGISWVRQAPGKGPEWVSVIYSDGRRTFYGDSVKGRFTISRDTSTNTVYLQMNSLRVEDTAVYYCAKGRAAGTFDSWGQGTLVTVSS
VL: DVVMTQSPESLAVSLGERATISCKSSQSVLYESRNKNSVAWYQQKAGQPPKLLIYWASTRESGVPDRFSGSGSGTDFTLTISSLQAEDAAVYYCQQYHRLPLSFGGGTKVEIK

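The library (AAYL49) carries one to three amino acid substitutions per variant, with no insertions or deletions. The assay is AlphaSeq: two haploid yeast populations carry antibody and antigen on their surface. Mating (16 h, 30 °C) was followed by selection of diploids and sequencing of their barcodes. The ratio of observed to expected reads was calibrated, replicate by replicate, on BCL2-family standards whose Kd was known from biolayer interferometry. Mating was done three times.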

Each variant is given by its three heavy chain CDRs, as the data file delimits them; those of the parent are GFTLNSYGIS, VIYSDGRRTFYGDSVK, GRAAGTFDS. The read-out is the apparent dissociation constant on a log10 scale (nM): the lower, the stronger. Replicates are averaged; those with no signal do not enter the mean. Where no diploid with the target was found in any replicate, the entry reads "not detected": below detection, most likely a poor binder, though not proof of it. For reference, the parent read 0.65 as the reference entry and 4.11 (one replicate of three) as a member of this library. Three control strains display no target. For library AAYL49, 15% of the pairings with them gave a signal, with a median of 4.06 and one signal in twenty below 2.83, so weak values seen in few replicates may be background.

CDR-H1	CDR-H2	CDR-H3	mean log10 Kd (nM)	seen in
GFTLNSYGIS	VIYSDGRRPFYGDSQK	GRAAGTFDS	not detected	0/3
GFTLNSYAIS	VIYSDGRTTFYGFSVK	GRAAGTFDS	not detected	0/3
GFTLNVYGIS	VCYSDGSRTFYGDSVK	GRAAGTFDS	not detected	0/3
GPTLNSYGIS	VIYSDGRRTPYGDSVL	GRAAGTFDS	3.66	1/3
GFTLNSYGHS	VIYSDQRRTFYGDSVK	GRAAGTYDS	not detected	0/3
GFVLNSYGIS	VIHSDGRRTFYGDSVK	GRAAQTFDS	not detected	0/3
GFTLNSYGIS	VIYPDGRRTFYGDSVG	GRAAGTFDS	3.56	3/3
GFTLNSYGIS	VPYSDGRRTFYGDSVL	GRAAGTFDS	5.20	2/3
GFTFNSYGPS	VIFSDGRRTFYGDSVK	GRAAGTFDS	not detected	0/3
GFTLNSYGIS	VPYSDGRRTFYGDSVK	GRAKGTFRS	not detected	0/3
GFTLHSYGIS	VIYSDGRRTFYMFSVK	GRAAGTFDS	5.18	1/3
GFTLNSYGIL	VIYSDGRRTFYGDSEK	GRYAGTFDS	4.87	2/3
GFTLNSYGES	VIYSDGRRTFYGDSVK	WRATGTFDS	not detected	0/3
GMTLNSYGIS	VILSDGTRTFYGDSVK	GRAAGTFDS	not detected	0/3
GFTLNSYGIH	VIYSDGRRTFYGDSVK	GRCAGTFSS	not detected	0/3
GFTLNSYRKS	VIYSDGRRTFSGDSVK	GRAAGTFDS	not detected	0/3
GFTLNSYGIS	VIYSDGRRTFYGDSVK	GRCAGLFDS	not detected	0/3
GFTLNSYPIS	VIYSDGRRTFYGDSVK	GEATGTFDS	not detected	0/3
GFTLNSYGIS	VIYRDGRRQFYGDSVK	GRAAGTFDS	not detected	0/3
GFTLNSYGIS	VIYSPGRRTFYGDSLK	GREAGTFDS	not detected	0/3
GFTLNSYGIS	SIYRDGRRTFYGDSVW	GRAAGTFDS	4.76	2/3
GFTLNWYGIS	VIYSDGRRTFYGDSVK	GQAAKTFDS	3.87	2/3
GITLNSYGIS	VFYSDGRRTFYGDSVK	GRAAGTFQS	not detected	0/3
MFTLNSYGIS	VIYSDDRRTFYGDSVR	GRAAGTFDS	4.87	1/3
GFTLNSYGRS	VIYSDGRRCFMGDSVK	GRAAGTFDS	2.87	1/3
GFGLNSYEIS	VIYSDGRRTFYGDSVK	GRAAGTDDS	4.20	1/3
GFTLNSYGKS	QIYSDQRRTFYGDSVK	GRAAGTFDS	4.54	1/3
GITLRYYGIS	VIYSDGRRTFYGDSVK	GRAAGTFDS	3.52	3/3
GFTLNSYGFS	VTYSDGRRTFYGDSVK	GRAAGTFDS	not detected	0/3
GFHLNSYGIS	VIYSDGRRTFYGDSVK	GCAAGTFDV	2.76	3/3
GFTTNSYGIS	VIYSDGRRSFYGDSVK	GRAAGTFDQ	3.95	1/3
GFTLKSYGIS	VIWSDGRRTFYGDSVK	GRPAGTFDS	not detected	0/3
GFTLNSYKIS	VIYSDGRRTFYGHSVC	GRAAGTFDS	not detected	0/3
GFTLNSYGIS	VIYSDSRRTFYGDSVK	GRAAGTFLS	not detected	0/3
GNTLNSYGIS	VAISDGRRTFYGDSVK	GRAAGTFDS	not detected	0/3
GFTLNSYNIS	WIYSDGRRTFYGDSVK	GRAPGTFDS	not detected	0/3
GFTLNSYGIS	VIYSDGRRTFYGDLVK	GRAHGQFDS	not detected	0/3
GFTLNSYGIS	VIYSDGRRTQYGFSVK	GRAAGGFDS	not detected	0/3
GFTLNSYGIS	VIYSDGGRTFYGDSAG	GRAAGTFDS	3.50	1/3
GITLNSYGIS	VIYSDGRRTFYGDSVK	GRAAGTFDG	not detected	0/3
GFTLNSYGIS	VWYSDGRRTFYGMSVK	GRAAGTFFS	not detected	0/3
GFTLNSYGIF	VIYSDGRRTFYGDSVK	GRAAFTFTS	not detected	0/3
GFTLNWYMIR	VIYSDGRRTFYGDSVK	GRAAGTFDS	3.19	1/3
GFTLCSYGIS	VIYNDGRRTFYGDSVK	GLAAGTFDS	not detected	0/3
GFTLYSYGIS	VIYSDGRCTFYGDSVK	GRAAGHFDS	not detected	0/3
GFPTNSYGIS	VIYSDGRRTFAGDSVK	GRAAGTFDS	not detected	0/3

The last 8 entries again:

| CDR-H1 | CDR-H2 | CDR-H3 | mean log10 Kd (nM) | seen in |
|---|---|---|---|---|
| GFTLNSYGIS | VIYSDGGRTFYGDSAG | GRAAGTFDS | 3.50 | 1/3 |
| GITLNSYGIS | VIYSDGRRTFYGDSVK | GRAAGTFDG | not detected | 0/3 |
| GFTLNSYGIS | VWYSDGRRTFYGMSVK | GRAAGTFFS | not detected | 0/3 |
| GFTLNSYGIF | VIYSDGRRTFYGDSVK | GRAAFTFTS | not detected | 0/3 |
| GFTLNWYMIR | VIYSDGRRTFYGDSVK | GRAAGTFDS | 3.19 | 1/3 |
| GFTLCSYGIS | VIYNDGRRTFYGDSVK | GLAAGTFDS | not detected | 0/3 |
| GFTLYSYGIS | VIYSDGRCTFYGDSVK | GRAAGHFDS | not detected | 0/3 |
| GFPTNSYGIS | VIYSDGRRTFAGDSVK | GRAAGTFDS | not detected | 0/3 |